Values of other authors as cited in paper PMC5049785, “Characterization of Novel Antimalarial Compound ACT-451840: Preclinical Assessment of Activity and Dose–Efficacy Modeling” (PLoS Medicine, 2016).

Test system: P. falciparum strain 3D7 (MR4)
Set-up: method as in PMID 16735432
Conditions: 10 x IC50; cited from earlier work

For CCN(CC)CCCC(C)Nc1ccnc2cc(Cl)ccc12 (stereo not shown) [Chloroquine, chloroquine], the “parasite clearance time to kill 99.9% of the initial population” value is listed as 32 h.
